Consider 1 compound from ChEMBL document CHEMBL2157905, “Inhibition of therapeutically important polymerases with high affinity bis-intercalators” (Bioorg Med Chem Lett, 2012).

This assay deals with Human immunodeficiency virus type 1 reverse transcriptase (Human immunodeficiency virus 1) (UniProt Q72547). In words: Ratio of IC50 for HIV-1 reverse transcriptase using 0.05 ug/mL of Poly(rA).p(dT) (12 to 18) as substrate to IC50 for HIV-1 reverse transcriptase using 25 ug/mL of Poly(rA).p(dT) (12 to 18) as substrate.

As to `Nc1ccc2c(c1)c(-c1ccccc1)[n+](CCCNCCNCCC[n+]1c(-c3ccccc3)c3cc(N)ccc3c3ccc(N)cc31)c1cc(N)ccc21`, the Ratio IC50 was 213.
